In general, Kd refers to the concentration at which binding is half-saturated.

The test concerns the target Carbonic anhydrase 2 (Homo sapiens, UniProt P00918).

`NC(Cc1ccccc1)C(=O)[C@@H](N)C(=O)NCCOCCOCCNC(=O)c1ccc(S(N)(=O)=O)cc1` (stereo partly specified): the Kd worked out at 14 nM.

These data come from ChEMBL document CHEMBL1128410 (J Med Chem, 1995).
